Experimental data published in article PMC6796883, “Molecular basis for hierarchical histone de-β-hydroxybutyrylation by SIRT3” (Cell Discovery, 2019).
Values belong to the substance of their own block, whether it stands above or below them.

Chains of the proteins cited; added tags and fusions are not shown. Residues count along the entry.
UniProt Q8IXJ6, 34-356, stated change not applied: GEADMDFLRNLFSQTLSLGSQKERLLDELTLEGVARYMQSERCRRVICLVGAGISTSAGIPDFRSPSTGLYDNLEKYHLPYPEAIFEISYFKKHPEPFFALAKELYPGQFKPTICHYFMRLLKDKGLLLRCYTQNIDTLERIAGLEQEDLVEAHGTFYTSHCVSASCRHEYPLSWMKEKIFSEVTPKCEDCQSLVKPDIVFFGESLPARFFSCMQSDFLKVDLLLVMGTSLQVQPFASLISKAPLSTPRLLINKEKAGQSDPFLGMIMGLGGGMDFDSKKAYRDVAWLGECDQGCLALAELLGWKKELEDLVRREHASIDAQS
UniProt Q9NTG7, 2-399: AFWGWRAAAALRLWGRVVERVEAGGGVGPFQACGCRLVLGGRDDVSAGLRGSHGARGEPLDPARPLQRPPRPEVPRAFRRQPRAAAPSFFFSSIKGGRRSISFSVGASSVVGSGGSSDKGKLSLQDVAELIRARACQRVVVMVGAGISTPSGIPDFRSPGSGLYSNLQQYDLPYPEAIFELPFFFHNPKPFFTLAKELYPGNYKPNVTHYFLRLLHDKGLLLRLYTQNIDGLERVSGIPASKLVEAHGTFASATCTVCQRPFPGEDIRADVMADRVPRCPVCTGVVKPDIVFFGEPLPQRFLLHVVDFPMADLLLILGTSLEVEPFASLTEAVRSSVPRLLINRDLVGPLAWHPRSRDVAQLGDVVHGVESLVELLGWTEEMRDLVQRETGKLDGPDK

Experiments:
[1] = molecular target: SIRT1, NAD+-dependent deacetylase domain (human); assay: ITC; 25 °C, MicroCal PEAQ-ITC; 200 μL of 50 μM protein in the cell titrated with 17 injections of 750 μM peptide; in the absence of NAD+; one set of binding sites model
[2] = molecular target: SIRT5, NAD+-dependent deacetylase domain (human); assay: as above
[3] = molecular target: SIRT2Δ (human SIRT2 residues 34-356) (human) (UniProt Q8IXJ6); assay: ITC; 25 °C, MicroCal PEAQ-ITC; 50 μM protein in the cell titrated with 17 injections of 750 μM peptide; in the absence of NAD+; 'one set of binding sites' model
[4] = molecular target: Histone H3K4cr peptide (Homo sapiens) (UniProt P68431); conditions: cited from earlier work
[5] = molecular target: CobBΔ (E. coli CobB residues 38-279) (E. coli) (UniProt P75960); assay: ITC; 25 °C, MicroCal PEAQ-ITC; 50 μM protein in the cell titrated with 17 injections of 750 μM peptide; in the absence of NAD+; 'one set of binding sites' model

Kd [1]: 729 µM | Kd [2]: 1120 µM
Substance: Histone H3(1–15)K9bhb peptide (R/S racemic mixture) (from UniProt P68431 2-16)

Kd [3]: 81.3 µM
Substance: histone H3(1-15)K9cr peptide (from UniProt P68431 2-16)

Substance: SIRT3 (from UniProt Q9NTG7)
Kd [4]: 25.1 µM

Kd [5]: 1.9 µM
Substance: histone H3(1-15)K9bhb peptide (racemic mixture) (from UniProt P68431 2-16)
